Source: PubChem
DT40 TDP1 no CPT: qHTS for Inhibitors of human tyrosyl-DNA phosphodiesterase 1 (TDP1): qHTS in cells in absence of CPT. DT40 Tdp1-/- hTDP1 cells, no CPT, ATP luminescence, 48 h. Potency, µM (highest dose often 46.2 µM), for the others: at the highest dose activity change, negative = growth inhibition, hits mostly inhibitors. 420,000 tested, 15% active. AID 686978, 2013; note: potency is the fitted concentration of half-maximal effect; % is set by controls: 0 for no effect and ±100 for the full control effect; nearly all actives have a fitted effect of over 55% in size
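Compound effects on proliferation are scored in DT40 Tdp1-/-;hTDP1 cells in the absence of CPT. ATP levels (CellTiter-Glo luminescence) are recorded after a ≥48 hr, 37 °C incubation.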
miR-21 reporter: raises the signal of a miR-21 reporter; Potency, µM (doses to about 38.3 µM), inactives show top-dose reporter change, positive = more light; HeLa miR-21 FLuc reporter, luciferase, 48 h; AID 2288; 340,000 tested, under 10 active; active = well fitted rising curve with a large enough effect; inconclusive = small, poorly fitted or top-dose-only effect; inactive = no such curve, though single readings can be large or run the other way;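 further: % of control where 0% means no effect; miR-21 action dims this reporter so a rising signal means less miR-21 action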
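HeLa miR-21-FLuc reporter line, endogenous miR-21; 2000 cells/well in DMEM/10% FBS; compound titration up to ~40uM final, 48 h, 37 degree Celsius; luciferase detection reagent, 15 min lysis, CCD luminescence.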
TDP1 inh: inhibitors of human tyrosyl-DNA phosphodiesterase TDP1. recombinant TDP1, AlphaScreen DNA substrate cleavage. Potency, µM (doses to about 130 µM), for the others: at the highest dose activity change, negative = inhibition, most hits filed as inhibitors. 350,000 tested, 0.28% active. AID 485290; note: potency is the fitted concentration of half-maximal effect; % is set by controls: 0 for no effect and ±100 for the full control effect; nearly all actives have a fitted effect of over 40% in size
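Enzyme-compound mixtures sat 15 min at room temperature, followed by a 5 min reaction with 15 nM final substrate and 10 min with AlphaScreen beads. Recombinant human Tdp1 was used at 1 nM final.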
uPA surface inh: cell surface uPA generation inhibition. 330,000 tested, 0.31% active. Potency, µM (top dose mostly 38.3 µM), inactives show at the highest dose activity change, negative = inhibition, usual class: inhibitors. cell surface uPA generation assay, qHTS. AID 540303; active = well fitted inhibition curve with a large enough effect; inconclusive = small, poorly fitted or top-dose-only effect; inactive = no such curve, though single readings can be large or run the other way; tested in mouse RAW 264.7 cells; note: potency is the fitted concentration of half-maximal effect; % is set by controls: 0 for no effect and ±100 for the full control effect; nearly all actives have a fitted effect of over 55% in size
TDP1 cell CPT: DT40-hTDP1 cell growth loss with CPT. chicken DT40 Tdp1-/-;hTDP1 cells + 20 nM CPT, ATP luminescence, 48 h. Potency, µM (series often up to 46.2 µM), for inactives: at the top dose activity change, negative = growth inhibition, usual class: inhibitors. 420,000 tested, 12% active. AID 686979; note: potency is the fitted concentration of half-maximal effect; % is set by controls: 0 for no effect and ±100 for the full control effect; nearly all actives have a fitted effect of over 55% in size
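Cell growth measured by CellTiter-Glo luminescence after a minimum 48 h, 37 C compound exposure with 20 nM CPT in Tdp1-knockout DT40 cells stably expressing hTDP1, seeded 400/well; qHTS titration format.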
Starred values were filed as active, the others as inactive; ? = inconclusive; · = no result; ! = a repeat was not active; [ ] = remark or other dose. In the library only some 16% were active in any assay of this set; here they are far more common. Unless noted, calls come from the whole dose curve; as a rule, active = well fitted curve in the direction sought with a large enough effect; inconclusive = small, poorly fitted or top-dose-only effect, or another doubt; inactive = no such curve, though single readings can be large; an effect the other way counts as inactive or inconclusive.

The opening 6 entries, ahead of the listing:
Every second line gives: DT40 TDP1 no CPT, miR-21 reporter, TDP1 inh, uPA surface inh, TDP1 cell CPT
(1) Cc1ccc(Nc2c(-c3cccnc3)nc3ccc(C)cn23)cc1
→ ?, -1.9%, -2.1%[12.3 µM], ·, ?
(2) Cc1ccccc1Nc1c(-c2cccnc2)nc2ccccn12
→ ?, 7.7%, 3.9%, 3.6%, 20.6µM*
(3) Cc1ccccc1Nc1c(-c2cccc(N(C)C)c2)nc2ccc(Br)cn12
→ 23.1µM*, -10.1%, 10.0%, ·, 13µM*
(4) Cc1ccc2nc(-c3cccnc3)c(Nc3ccccc3C)n2c1
→ ?, 7.2%, -1.1%, 4.1%, 16.4µM*
(5) Cc1ccc(-c2nc3ccccn3c2Nc2ccccc2C)o1
→ 15.8µM*, ·, 8.4%, ·, ?
(6) CC(C)c1ccc(-n2ccnc2SCC(=O)O)cc1
→ 0.9%, -10.3%, -2.5%, -1.6%, -2.0%

All compounds of this part, repeating the preview:
Every second line gives: DT40 TDP1 no CPT, miR-21 reporter, TDP1 inh, uPA surface inh, TDP1 cell CPT
(1) Cc1ccc(Nc2c(-c3cccnc3)nc3ccc(C)cn23)cc1
→ ?, -1.9%, -2.1%[12.3 µM], ·, ?
(2) Cc1ccccc1Nc1c(-c2cccnc2)nc2ccccn12
→ ?, 7.7%, 3.9%, 3.6%, 20.6µM*
(3) Cc1ccccc1Nc1c(-c2cccc(N(C)C)c2)nc2ccc(Br)cn12
→ 23.1µM*, -10.1%, 10.0%, ·, 13µM*
(4) Cc1ccc2nc(-c3cccnc3)c(Nc3ccccc3C)n2c1
→ ?, 7.2%, -1.1%, 4.1%, 16.4µM*
(5) Cc1ccc(-c2nc3ccccn3c2Nc2ccccc2C)o1
→ 15.8µM*, ·, 8.4%, ·, ?
(6) CC(C)c1ccc(-n2ccnc2SCC(=O)O)cc1
→ 0.9%, -10.3%, -2.5%, -1.6%, -2.0%
(7) O=C(CC1C(=O)NCCN1C(=S)Nc1ccccc1)Nc1ccc(F)cc1 (stereo not given)
→ -3.5%, 0.9%, 5.5%, 3.1%, 0.8%
(8) Cc1ccc(S(=O)(=O)NCCC(=O)NC2CCC(C)CC2)cc1 (stereo not given)
→ 3.0%, ·, 0.9%, -4.8%, -5.4%
(9) O=C(Cc1ccc(-c2ccccc2)cc1)OCC(=O)N1CCCC1=O
→ 4.1%, 0.6%, -1.2%, 4.3%, 5.1%
(10) COc1ccc(S(=O)(=O)N2Cc3ccccc3CC2C(=O)Nc2cc(Cl)ccc2Cl)cc1 (stereo not given)
→ ?, 10.8%, -0.6%, ·, ?
(11) COc1ccc(-c2nc3ccccn3c2Nc2ccccc2C)cc1
→ ?, ·, 7.5%, ·, 11.2µM*
(12) COc1ccc(-c2nc3ccccn3c2NCc2ccc3c(c2)OCO3)cc1
→ ?, -30.4%, 0.0%, 0.2%, -27.2%
(13) Cc1ccccc1Nc1c(-c2c(F)cccc2Cl)nc2ccc(Br)cn12
→ ?, 7.9%, -2.5%, ·, ?
(14) Cc1ccccc1Nc1c(-c2ccco2)nc2c(C)cccn12
→ 20.6µM*, 24.4%, 14.7%, ·, 23.1µM*
(15) Cc1ccccc1Nc1c(-c2ccncc2)nc2ccc(Br)cn12
→ 18.4µM*, 7.8%, 0.0%, -2.2%, 23.1µM*
(16) Cc1ccccc1Nc1c(-c2cccnc2)nc2ccc(Br)cn12
→ ?, 17.1%, 6.2%, -18.2%, 14.6µM*
(17) Cc1ccccc1Nc1c(-c2ccc(Cl)cc2)nc2c(C)cccn12
→ -24.6%, -6.3%, 0.0%, ·, ?
(18) O=C(OCC#CCSc1nnc(-c2cccc(F)c2)o1)c1ccc(F)cc1
→ ·, ·, -7.5%, ·, ·
(19) Cc1ccccc1Nc1c(-c2cccnc2)nc2ccc(Cl)cn12
→ ?, 14.6%, -8.5%[12.3 µM], ·, 11.6µM*
(20) O=C(Nc1ccc(F)cc1)C1C2CCC3C(CCC21)C3(Cl)Cl (stereo not given)
→ 18.4µM*, 1.5%, ·, 2.9%, ?
(21) CCOC(=O)c1cc2c(=O)n3ccccc3nc2n(CCOC)c1=NC(=O)c1c(-c2c(F)cccc2Cl)noc1C
→ 18.4µM*!, -8.4%, 0.0%, -9.7%, ?
(22) CCOC(=O)c1cc2c(=O)n3ccccc3nc2n(Cc2ccco2)c1=NC(=O)c1ccc(Br)cc1
→ -83.5%, -8.9%, 2.9%, ·, 18.4µM*
(23) CCOC(=O)c1cc2c(=O)n3ccccc3nc2n(Cc2ccco2)c1=NC(=O)c1c(F)cccc1Cl
→ 20.6µM*, -1.4%, 5.9%, ·, ?
(24) CCOC(=O)c1cc2c(=O)n3ccccc3nc2n(CCOC)c1=NC(=O)c1ccncc1
→ ?, -9.5%, 4.5%, -1.7%, ?
(25) CCOC(=O)c1cc2c(=O)n3ccccc3nc2n(Cc2ccco2)c1=NC(=O)c1cccc(Br)c1
→ ?, -4.9%, 3.8%, ·, 16.4µM*
(26) COc1ccccc1Nc1nc(N)nc(CSc2nccn2C)n1
→ 0.2%, -17.6%, -2.5%, -6.1%, -3.4%
(27) C#CC(C)(C)NC(=S)NC1CC2C=CC1C2 (stereo not given)
→ -13.7%, -1.2%, 5.2%, -2.1%, 4.4%
(28) CCOC(=O)c1cc2c(=O)n3ccccc3nc2n(Cc2ccco2)c1=NC(=O)c1cccc(C)c1
→ ?, 7.5%, 0.0%, ·, 23.1µM*
(29) CCOC(=O)c1cc2c(=O)n3ccccc3nc2n(Cc2ccco2)c1=NC(=O)c1cccnc1
→ ?, -2.1%, ·, 0.0%, ?
(30) CCOC(=O)c1cc2c(=O)n3ccccc3nc2n(Cc2ccco2)c1=NC(=O)c1ccccc1OCC
→ 18.4µM*, 0.2%, 1.2%, 4.6%, ?
(31) CCOC(=O)c1cc2c(=O)n3ccccc3nc2n(Cc2ccco2)c1=NC(=O)c1ccc(C)c(C)c1
→ ?, -2.3%, 2.9%, ·, -23.0%
(32) CCOC(=O)c1cc2c(=O)n3cccc(C)c3nc2n(Cc2ccco2)c1=NC(=O)c1cccnc1
→ ?, -15.8%, -13.6%, -3.9%, 16.4µM*
(33) CCOC(=O)c1cc2c(=O)n3ccccc3nc2n(C(C)C)c1=NC(=O)c1ccncc1
→ ?, -25.2%, 7.3%, -1.0%, -14.3%
(34) Cn1nc(C(F)(F)F)c(-c2ccccc2)c1NC(=O)CSCC(=O)O
→ 0.9%, -0.9%, 5.7%, 2.5%, 31.1%
(35) O=c1c(-c2ccc(F)cc2)coc2c3c(ccc12)OCCO3
→ -14.8%, -22.8%, 4.3%, 17.1%, 0.6%
(36) CCOc1nc(Nc2cc(Cl)ccc2OC)nc(OCC)n1
→ ?, -0.1%, 0.0%, 6.1%, 20.6µM*
(37) CCOc1nc(Nc2ccc(OC)cc2OC)nc(OCC)n1
→ 16.4µM*, 0.4%, 2.1%, 9.6%, -22.5%
(38) COc1ccc(Cl)cc1Nc1nc(N2CCCC2)nc(N2CCCC2)n1
→ ·, -0.1%, 4.2%, ·, ·
(39) CC(OCC(O)CN(C)CCOc1ccccc1)c1ccc(Cl)cc1 (stereo not given)
→ ?, 2.4%, -2.1%, -5.2%, -25.5%
(40) COC(=O)C1=NN(c2ccc(Cl)cc2)C2C(=O)N(c3ccccc3OC)C(=O)C12 (stereo not given)
→ -4.4%, -3.3%, 1.1%, -0.9%, 3.7%
(41) COc1ccc(OC)c(-n2c(C)ccc2-c2ccc(S(C)(=O)=O)cc2)c1
→ ?, -10.5%, 3.4%, -2.3%, 18.4µM*
(42) C[C@@H]1CCCCO[C@@H](CN(C)Cc2ccc(C(F)(F)F)cc2)[C@@H](C)CN([C@H](C)CO)C(=O)c2cc(N(C)C)ccc2O1
→ 23.1µM*, ·, ·, ·, 23.1µM*
(43) C[C@@H]1CN([C@@H](C)CO)C(=O)c2cc(N(C)C)ccc2O[C@@H](C)CCCCO[C@@H]1CN(C)Cc1ccc2c(c1)OCO2
→ 16.4µM*, ·, ·, ·, 16.4µM*
(44) C=CCSc1nc2c(c(=O)[nH]c(=O)n2C)n1Cc1ccc(C)cc1
→ ?, -15.8%, 2.6%, -12.0%, ?
(45) COC(=O)c1ccc2oc(=O)c(S(=O)(=O)c3ccc(C)cc3)cc2c1
→ 1.2%, 5.4%, 0.0%, ·, -13.6%
(46) O=C(NCCCc1ccccc1)c1nn(-c2ccccc2F)nc1CO
→ 20.6µM*, 25.1%, 2.3%, ·, ?
(47) CCOc1ccc(-n2nc(CO)c(C(=O)NCc3cccnc3)n2)cc1
→ ?, 11.4%, 9.3%, ·, ?
(48) CCOc1ccc(-n2nc(CO)c(C(=O)NCCCc3ccccc3)n2)cc1
→ 23.1µM*, 2.4%, -2.3%, ·, 14.6µM*
